Test: Dissociation constant, pKa of the compound by spectrophotometric analysis
In the case of `NC(=O)c1cc[n+](Cc2ccc(C[n+]3cccc(/C=N/O)c3)cc2)cc1.[Br-].[Br-]`, the pKa is reported as 8.77.
Compound `NC(=O)c1cc[n+](Cc2ccccc2C[n+]2ccc(/C=N/O)cc2)cc1.[Br-].[Br-]` has a pKa of 7.94.
`NC(=O)c1ccc[n+](Cc2ccc(C[n+]3cccc(/C=N/O)c3)cc2)c1.[Br-].[Br-]` showed a pKa of 8.79.
`NC(=O)c1ccc[n+](Cc2cccc(C[n+]3cccc(/C=N/O)c3)c2)c1.[Br-].[Br-]` gave a pKa of 8.76.
Compound `NC(=O)c1ccc[n+](Cc2ccc(C[n+]3ccc(/C=N/O)cc3)cc2)c1.[Br-].[Br-]` has a pKa of 8.15.
`NC(=O)c1cc[n+](Cc2cccc(C[n+]3cccc(/C=N/O)c3)c2)cc1.[Br-].[Br-]` showed a pKa of 8.75.
For `NC(=O)c1cc[n+](Cc2ccc(C[n+]3ccccc3/C=N/O)cc2)cc1.[Br-].[Br-]`, the pKa was 7.76.
In the case of `NC(=O)c1cc[n+](Cc2cccc(C[n+]3ccc(/C=N/O)cc3)c2)cc1.[Br-].[Br-]`, the pKa is reported as 8.01.
`NC(=O)c1cc[n+](Cc2ccccc2C[n+]2cccc(/C=N/O)c2)cc1.[Br-].[Br-]` showed a pKa of 8.59.
Work on `NC(=O)c1cc[n+](Cc2cccc(C[n+]3ccccc3/C=N/O)c2)cc1.[Br-].[Br-]` yielded a pKa of 7.69.
For `NC(=O)c1ccc[n+](Cc2ccc(C[n+]3ccccc3/C=N/O)cc2)c1.[Br-].[Br-]`, the pKa was 7.72.
With `NC(=O)c1ccc[n+](Cc2ccccc2C[n+]2ccccc2/C=N/O)c1.[Br-].[Br-]` the pKa was 7.79.
With `NC(=O)c1ccc[n+](Cc2ccccc2C[n+]2cccc(/C=N/O)c2)c1.[Br-].[Br-]` the pKa was 8.69.
For `NC(=O)c1cc[n+](Cc2ccccc2C[n+]2ccccc2/C=N/O)cc1.[Br-].[Br-]`, the pKa was 7.77.
With `NC(=O)c1ccc[n+](Cc2cccc(C[n+]3ccccc3/C=N/O)c2)c1.[Br-].[Br-]` the pKa was 7.75.
`NC(=O)c1cc[n+](Cc2ccc(C[n+]3ccc(/C=N/O)cc3)cc2)cc1.[Br-].[Br-]` showed a pKa of 8.09.
For `NC(=O)c1ccc[n+](Cc2ccccc2C[n+]2ccc(/C=N/O)cc2)c1.[Br-].[Br-]`, the pKa was 7.85.
`NC(=O)c1ccc[n+](Cc2cccc(C[n+]3ccc(/C=N/O)cc3)c2)c1.[Br-].[Br-]` showed a pKa of 7.95.

Reference: ChEMBL document CHEMBL1821552, “Synthesis and in vitro evaluation of xylene linked carbamoyl bis-pyridinium monooximes as reactivators of organophosphorus (OP) inhibited electric eel acetylcholinesterase (AChE)” (2011)
